From patent US5015659A, “Thienylacetic acid derivatives, process for the preparation thereof, the use thereof, and pharmaceuticals containing these and the preparation thereof” (Cassella Aktiengesellschaft, priority 1989, dated 1991)

Tested on: glycine receptor
Experiment: Receptor-binding studies in vitro, rat cortex synaptosomes
Details: listed as piracetam

## NC(=O)CN1CCCC1=O [Piracetam, reference compound]
  Binding to glycine receptors in the brain (in words): inactive
